Values quoted from earlier work as cited in patent US20130338178A1, “SIRTUIN MODULATORS AS INHIBITORS OF CYTOMEGALOVIRUS” (THE TRUSTEES OF PRINCETON UNIVERSITY, priority 2011, published 2013).

Target: T1, SIRT2 (Homo sapiens, UniProt Q8IXJ6)
T1 sequence (Q8IXJ6 1-389): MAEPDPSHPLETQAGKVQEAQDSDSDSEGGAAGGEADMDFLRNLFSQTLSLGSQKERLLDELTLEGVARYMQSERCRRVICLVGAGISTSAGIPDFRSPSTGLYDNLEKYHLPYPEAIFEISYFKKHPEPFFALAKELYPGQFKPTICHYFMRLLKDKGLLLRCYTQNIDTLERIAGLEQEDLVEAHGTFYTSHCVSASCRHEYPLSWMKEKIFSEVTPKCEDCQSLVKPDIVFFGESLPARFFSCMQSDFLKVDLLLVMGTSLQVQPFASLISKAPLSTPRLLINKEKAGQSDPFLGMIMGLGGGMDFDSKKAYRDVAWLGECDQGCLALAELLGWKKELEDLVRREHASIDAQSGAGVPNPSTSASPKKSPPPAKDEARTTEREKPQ
Conditions: cited from earlier work

Cambinol
IC50: 59 µM
